Molecular target: androgen receptor (Homo sapiens, UniProt P10275)
Test: Measurement of agonist effect on androgen receptor (reporter gene assay, 11A11B2 cells)
Assay type: cell-based
Parameters: expressed in transfected cells
Settings: compound concentration showing a transcription activity of 5% (0.1 nmol/L DHT = 100%, assay medium alone = 0%), 48 hours
Description: HeLa cells (purchased from Dai-Nippon Seiyaku K. K.) were cultured overnight in Dulbecco's Modified Eagle Medium containing no phenol red, but containing 3% charcoal-treated fetal bovine serum (hereafter referred to as DCC-FBS) (this medium is hereafter referred to as phenol-red-free DMEM). […]
The 11A11B2 cells were inoculated in a white clear-bottomed 96-well microplate (COSTAR) so that the cell concentration was 1.0×10^4/well, and were cultured overnight using phenol-red-free DMEM containing 3% DCC-FBS (hereafter referred to as the assay medium). Samples of the assay medium containing the compounds of the Examples and compounds of the Comparative Examples were added so that the final concentrations of the compounds of the Examples and compounds of the Comparative Examples were 1, 10, 100, 1,000 and 10,000 nmol/L), and the cells were cultured for 48 hours, after which the transcription activity value was measured. The transcription activity was measured using a Bright-Glo™ Luciferase Assay System (Promega).
The transcription activity rates of the compounds of the Examples were calculated from the transcription activity measured by the abovementioned method, with the transcription activity value obtained at 0.1 nmol/L DHT taken as 100%, and the transcription activity value in the case of the assay medium alone taken as 0%. […]

Sequences of proteins named here, by UniProt entry; tags and fusion partners are left off. A change or cut given only in a name is not applied to a line headed by its entry.
UniProt P10275: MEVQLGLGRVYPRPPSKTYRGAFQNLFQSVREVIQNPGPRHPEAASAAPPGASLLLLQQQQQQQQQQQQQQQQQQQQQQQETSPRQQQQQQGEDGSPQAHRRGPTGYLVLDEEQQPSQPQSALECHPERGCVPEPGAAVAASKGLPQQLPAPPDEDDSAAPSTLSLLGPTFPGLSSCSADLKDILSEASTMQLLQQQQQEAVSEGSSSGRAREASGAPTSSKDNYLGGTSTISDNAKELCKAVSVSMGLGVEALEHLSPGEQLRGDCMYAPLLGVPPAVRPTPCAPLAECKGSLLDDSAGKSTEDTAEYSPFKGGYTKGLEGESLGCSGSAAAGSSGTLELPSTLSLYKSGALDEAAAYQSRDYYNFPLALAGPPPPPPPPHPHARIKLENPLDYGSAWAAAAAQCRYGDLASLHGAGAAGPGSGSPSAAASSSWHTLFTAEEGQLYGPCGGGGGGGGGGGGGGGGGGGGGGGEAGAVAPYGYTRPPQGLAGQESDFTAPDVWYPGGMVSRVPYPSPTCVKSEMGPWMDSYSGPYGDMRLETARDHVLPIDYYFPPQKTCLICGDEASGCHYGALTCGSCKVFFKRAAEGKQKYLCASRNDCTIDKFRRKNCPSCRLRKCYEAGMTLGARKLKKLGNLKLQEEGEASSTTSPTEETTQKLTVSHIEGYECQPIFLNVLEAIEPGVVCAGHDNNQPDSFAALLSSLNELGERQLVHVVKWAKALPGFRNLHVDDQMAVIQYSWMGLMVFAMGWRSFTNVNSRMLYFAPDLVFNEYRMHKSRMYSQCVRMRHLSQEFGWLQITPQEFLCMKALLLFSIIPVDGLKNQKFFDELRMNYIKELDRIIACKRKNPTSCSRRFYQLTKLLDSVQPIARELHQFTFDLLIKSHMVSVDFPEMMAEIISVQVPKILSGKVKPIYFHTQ

How did the EC5 turn out when `CCNS(=O)(=O)N1CCC(N2C(=S)N(c3ccc(C#N)c(C(F)(F)F)c3)C(=O)C2(C)C)CC1` [Example 42, 4-[3-(1-ethylaminosulfonylpiperidin-4-yl)-4,4-dimethyl-5-oxo-2-thioxoimidazolidin-1-yl]-2-trifluoromethylbenzonitrile] was run?
Its EC5 is greater than 10 µM.

Source: patent US8470829B2 (priority 2004, dated 2013)
